We go through 1 molecule from patent US11046701B2, “Salt of cetagliptin, preparation method thereof, pharmaceutical composition, and use thereof” (CGENETECH (SUZHOU, CHINA) CO., LTD., priority 2018, dated 2021).

Protein sequences, listed by entry. Tags and fused reporters are not part of them. Residues count along the entry.
UniProt P28843, 38-760 limits assumed: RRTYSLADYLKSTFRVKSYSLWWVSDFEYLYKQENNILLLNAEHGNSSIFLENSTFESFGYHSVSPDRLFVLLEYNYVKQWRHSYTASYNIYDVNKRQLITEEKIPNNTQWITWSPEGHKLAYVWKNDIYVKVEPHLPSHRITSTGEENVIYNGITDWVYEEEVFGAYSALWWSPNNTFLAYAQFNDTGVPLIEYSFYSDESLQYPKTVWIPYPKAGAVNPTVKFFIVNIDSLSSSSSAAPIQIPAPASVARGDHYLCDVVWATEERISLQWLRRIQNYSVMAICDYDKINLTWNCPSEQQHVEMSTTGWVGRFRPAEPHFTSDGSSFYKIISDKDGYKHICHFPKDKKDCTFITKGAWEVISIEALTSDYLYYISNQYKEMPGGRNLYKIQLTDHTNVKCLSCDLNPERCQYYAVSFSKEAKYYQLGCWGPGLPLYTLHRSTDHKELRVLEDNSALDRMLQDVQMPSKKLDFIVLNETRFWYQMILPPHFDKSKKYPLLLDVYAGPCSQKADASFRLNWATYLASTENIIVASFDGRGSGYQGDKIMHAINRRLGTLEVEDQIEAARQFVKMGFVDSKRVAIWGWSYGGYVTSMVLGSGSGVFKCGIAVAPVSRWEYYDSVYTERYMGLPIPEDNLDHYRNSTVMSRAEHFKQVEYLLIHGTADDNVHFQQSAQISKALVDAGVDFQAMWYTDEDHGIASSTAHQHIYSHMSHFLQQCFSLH

In the test the target is serum DPPIV (Mus musculus, UniProt P28843). In words: Long-term administration on DIO mice: inhibition of serum DPPIV. In kind it is in vivo, C57BL16 mice. Details: from tissue; host or cells: serum of diet-induced obese C57BL mice after 28 days of oral dosing. The conditions noted are these: read-out: inhibition rate against DPPIV (serum). An excerpt:
Table 18 was a total data table of the metabolic parameters.

In general, inhibition refers to the share of the control response that was lost under treatment.

For the molecule `N[C@@H](CC(=O)N1CCn2c(nnc2C(F)(F)F)C1)Cc1cc(F)c(F)cc1F` [Sitagliptin phosphate, reference compound], the inhibition at 30 mg/kg is 66.4%.
